The values below come from US9243020B2, “Selective glycosidase inhibitors and uses thereof” (priority 2010, dated 2016).

Amino acid sequences for entries named in this document (tags omitted). A change or cut given only in a name is not applied to a line headed by its entry.
UniProt O60502: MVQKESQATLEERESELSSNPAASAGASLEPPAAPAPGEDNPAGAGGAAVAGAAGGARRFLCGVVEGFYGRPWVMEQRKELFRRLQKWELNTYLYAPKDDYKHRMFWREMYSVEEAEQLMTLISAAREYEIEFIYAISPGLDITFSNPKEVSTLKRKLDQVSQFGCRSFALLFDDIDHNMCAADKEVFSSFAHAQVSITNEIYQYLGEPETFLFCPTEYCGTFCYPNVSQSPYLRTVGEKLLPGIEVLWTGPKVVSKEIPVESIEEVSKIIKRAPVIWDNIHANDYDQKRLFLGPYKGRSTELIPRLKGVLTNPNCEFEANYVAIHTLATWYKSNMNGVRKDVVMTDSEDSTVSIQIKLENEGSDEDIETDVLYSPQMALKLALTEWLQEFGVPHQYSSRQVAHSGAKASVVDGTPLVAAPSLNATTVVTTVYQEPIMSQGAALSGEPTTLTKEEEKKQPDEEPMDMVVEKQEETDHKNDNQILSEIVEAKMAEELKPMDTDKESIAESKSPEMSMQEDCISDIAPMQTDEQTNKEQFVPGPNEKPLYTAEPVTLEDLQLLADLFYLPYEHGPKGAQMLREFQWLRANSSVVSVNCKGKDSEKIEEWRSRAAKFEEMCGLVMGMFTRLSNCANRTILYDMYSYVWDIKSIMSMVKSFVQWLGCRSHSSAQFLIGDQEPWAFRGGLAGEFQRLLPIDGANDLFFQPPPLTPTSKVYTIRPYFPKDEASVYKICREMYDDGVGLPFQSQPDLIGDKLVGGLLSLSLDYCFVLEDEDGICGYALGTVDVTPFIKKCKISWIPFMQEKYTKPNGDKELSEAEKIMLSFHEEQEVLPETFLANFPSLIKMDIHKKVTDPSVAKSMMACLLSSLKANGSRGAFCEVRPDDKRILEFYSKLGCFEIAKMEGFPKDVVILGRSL

The target in this assay is human O-GlcNAcase (Homo sapiens (Human), UniProt O60502). Nature of the assay: Assay for determination of Ki values for inhibition of O-GlcNAcase activity (fluorescence-based). In kind it is biochemical. The following applies: purified human O-GlcNAcase 0.7 nM, 2 mM 4-methylumbelliferyl N-acetyl-β-D-glucosaminide, pH 7.0, Cheng-Prusoff; read-out: Fluorescence-based hOGA Ki.

As a reminder, the Ki is the equilibrium dissociation constant of an inhibitor or competing ligand from its target. As to `CCNC1=N[C@@H]2C[C@H](O)[C@@H](CO)O[C@@H]2S1` [Example 2, (3aR,5R,6S,7aR)-2-(ethylamino)-5-(hydroxymethyl)-5,6,7,7a-tetrahydro-3aH-pyrano[3,2-d]thiazol-6-ol], the inhibitory constant (Ki) is 44 nM.
